IC50 data for one compound are collected here from publication PMC9104108, “Purification and Identification of Novel Myeloperoxidase Inhibitory Antioxidant Peptides from Tuna (Thunnas albacares) Protein Hydrolysates” (Molecules, 2022).

Test [1] addresses T1, MPO (Homo sapiens, UniProt P05164).
T1 construct: purchased Abnova, Taiwan
T1 sequence (P05164 49-745): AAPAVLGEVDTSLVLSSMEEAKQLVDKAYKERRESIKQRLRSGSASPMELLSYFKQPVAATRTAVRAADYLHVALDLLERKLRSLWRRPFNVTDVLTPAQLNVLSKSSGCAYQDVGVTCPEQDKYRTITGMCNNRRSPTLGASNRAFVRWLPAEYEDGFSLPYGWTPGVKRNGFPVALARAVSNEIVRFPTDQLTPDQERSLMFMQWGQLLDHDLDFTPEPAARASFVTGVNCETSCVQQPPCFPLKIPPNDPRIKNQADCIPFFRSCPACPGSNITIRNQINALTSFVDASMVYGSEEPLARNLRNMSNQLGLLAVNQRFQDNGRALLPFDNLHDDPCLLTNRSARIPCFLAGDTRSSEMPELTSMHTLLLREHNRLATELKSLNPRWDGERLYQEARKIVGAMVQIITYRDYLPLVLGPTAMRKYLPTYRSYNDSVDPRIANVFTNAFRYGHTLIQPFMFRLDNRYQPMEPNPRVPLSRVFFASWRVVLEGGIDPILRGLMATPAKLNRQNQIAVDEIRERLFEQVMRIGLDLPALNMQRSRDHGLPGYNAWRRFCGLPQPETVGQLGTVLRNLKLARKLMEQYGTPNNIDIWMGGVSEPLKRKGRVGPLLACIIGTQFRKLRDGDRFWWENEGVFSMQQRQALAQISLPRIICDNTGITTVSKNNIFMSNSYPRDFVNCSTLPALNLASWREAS
In words: MPO inhibitor screening assay kit, peroxidation assay. In kind it is biochemical. The source says: (§1) The inhibitory effect of peptides on MPO was estimated using an MPO inhibitor screening assay kit (Abnova, Taiwan), which was used to assess in both the peroxidation and chlorination activities of MPO. Peroxidation assay utilizes the peroxidase component of MPO. During the reaction, hydrogen peroxide reacts with 10-acetyl-3,7-dihydroxyphenoxazine (ADHP) to yield resorufin, a highly fluorescent compound. The chlorination assay utilizes non-fluorescent 2-[6-(4-aminophenoxy)-3-oxo-3H-xanthen-9-yl]-benzoic acid (APF), which is selectively cleaved by hypochlorite to produce fluorescein. The 4-aminobenzhydrazide was used as positive control. The MPO inhibitory activity was determined according to the kit instructions.

For test [2], the target named is T1, MPO. In words: MPO inhibitor screening assay kit, chlorination assay. The class given is biochemical.
Source text: as §1

Usually IC50 stands for the concentration that inhibits the measured activity by half. The low end stands for inhibition by little substance, the high end for a need for much substance. Turning to `CC(C)[C@H](NC(=O)[C@H](CO)NC(=O)[C@H](CCCNC(=N)N)NC(=O)[C@H](CCCNC(=N)N)NC(=O)[C@H](CCCNC(=N)N)NC(=O)[C@H](CCCNC(=N)N)NC(=O)CN)C(=O)N[C@@H](CCC(N)=O)C(=O)N[C@@H](Cc1c[nH]c2ccccc12)C(=O)N[C@@H](CS)C(=O)N[C@@H](C)C(=O)O` [GRRRRSVQWCA, reference compound], the IC50 worked out at 32.8 µM against MPO [1] and 27.2 µM at MPO [2].
